Data from patent US4291024A, “Cytotoxic liponucleotide analogs” (priority 1980, dated 1981).

Tests used:
LD10 (lethality) = type: in vivo; conditions: ×4 regimen
[1] = tested on: human colon carcinoma HCT-15 cells; test: Antitumor activity against human colon carcinoma in immunosuppressed mice; type: in vivo, mouse; conditions: for PER CENT CHANGE IN BODY WEIGHT: control +18
Protocol: Male B6D2F1 mice (18-22 g, 4/group) were immunosuppressed with 0.25 ml subcutaneous injection of ATS on days -1,0,1,3 and 6. Human colon carcinoma cells (5.0×10^6 cells/mouse) were inoculated subcutaneously into an area slightly above the left inguinal region on day 0. The drug dissolved in saline to a volume of 0.1 ml was injected intraperitoneally once a day for four consecutive days. Saline was administered to the controls. The percent change in body weight from the onset to the day of weighing the tumor was used as an indication of drug toxicity.

[2] = tested on: leukemia L5178Y ascites cells; test: Survival time of mice bearing leukemia L5178Y ascites cells, Ia-11-diglyceride; type: in vivo, mouse; conditions: control +0.66
Protocol: Mice (10/group) were inoculated with L5178Y cells (5×10^6 cells/mouse) and drug injections were begun on the second day. The drug in a volume of 0.1 ml was injected intraperitioneally once a day for four consecutive days. Saline was administered to the controls. The percent change in body weight from the onset to the termination of therapy was used as an indication of drug toxicity.

1-Beta-D-Arabinofuranosylcytosine-5'-diphosphate-L-diglyceride Diammonium Salt [Ia-11-Diglyceride]
LD10 (LD10 (lethality)): 85 mg/kg/day×4 | PER CENT CHANGE IN BODY WEIGHT ([1]; 25 mg/kg daily i.p. ×4 days): -11 PER CENT | PER CENT CHANGE IN BODY WEIGHT ([1]; 50 mg/kg daily i.p. ×4 days): -20 PER CENT | toxicity ([1]; immunosuppressed mice with human colon carcinoma (Table 6)): toxicity (Table 6) was observed | % CHANGE IN WEIGHT ([2]; 12.5 mg/kg daily i.p. ×4 days): +2.02% | % CHANGE IN WEIGHT ([2]; 25.0 mg/kg daily i.p. ×4 days): +1.56% | % CHANGE IN WEIGHT ([2]; 50.0 mg/kg daily i.p. ×4 days): -0.30%
